Earlier results on one compound are cited in patent publication EP2179733A1, “PHARMACEUTICAL COMPOSITION COMBINING AN ANTIMICROBIAL AGENT AND A SELECTIVE ENKEPHALINASE ENZYME INHIBITOR, WHICH CAN BE USED TO CONTROL AND TREAT ACUTE BACTERIAL DIARRHOEA” (World Trade Import-Export, WTIE A.G., priority 2007, dated 2009).

SMILES strings stand for the structures.

For this data set the following is noted: orally administered.

`O=C(O)c1cn(C2CC2)c2cc(N3CCNCC3)c(F)cc2c1=O` [Ciprofloxacin]: the “time to maximum blood concentrations after delivery” value is “one”.
